This experiment concerns the target UNC5B receptor on mouse bone marrow monocytes (mouse) (UniProt Q8K1S3). Description: cell-based or functional assay.

Consider “Mouse recombinant netrin-1 (from UniProt O09118 25-604) (ligand)”, for which the inhibition of monocyte adhesion (monocyte-EC adhesion assay, calcein AM) is 23%.

The record behind these values is patent US20220226434A1.
